The values below come from patent US6815425B1, “Pharmaceutical composition containing pGLU-GLU-PRO-NH2 and method for treating diseases and injuries to the brain, spinal cord and retina using same” (The United States of America as represented by the …, priority 1999, dated 2004).

In the data set the test system is rabbit retinal neurons.

For pGLU-GLU-PRO-NH2 [EEP], the “survival of neurons (viability relative to controls)” value is given as 58.7 t: 7.9%.
